Experimental data as given in patent US7045283B2, “Methods of high-throughput screening for internalizing antibodies” (The Regents of the University of California, priority 2000, dated 2006).

System: ErbB2-expressing SKBR3 tumor cells
Assay: Chelated Ligand Internalization Assay (CLIA) on SKBR3 cells
Assay type: cell-based, Human
Conditions: four hours of internalization, washed with 1 mM EDTA, fluorescence
Protocol: Liposomes are prepared from 1-palmitoyl-2-oleoyl-phosphatidylcholine (POPC) and cholesterol (6:4 molar ratio) and varying amounts of NTA-DOGS (Avanti Lipids; 0.5–5 mol. % of POPC amount) by lipid film hydration in solution containing 35 mM 8-hydroxypyrene-1,3,5-trisulfonic acid sodium salt (HPTS) (Molecular Probes Inc., Oreg., USA), pH 7.0, adjusted to the osmolality of 280 mmol/kg with NaCl. In some cases, the liposomes were made using 1,2-distearoyl-phosphatidyicholine (DSPC) instead of POPC, and the lipophilic fluorescent labels DiIC18(3)-DS and DiIC18(5)-DS (0.1–1 mol. % of the liposome phospholipid) were used instead of HPTS, with the same results. In these cases, hydration is at 55–60° C. in an aqueous 140 mM NaCl buffered with 5–20 mM 4-(N-2-hydroxyethyl-piperasino)ethylsulfonic acid sodium salt (HEPES) to pH 7.2–7.4. […]
Human breast cancer cells SKBR3, SKOV3, BT474, MCF7, MDA-MB-453, MDA-MB-468 (American Type Culture Collection, ATCC) were grown to 80–90% confluence in the media type recommended by ATCC supplemented with 10% fetal calf serum (FCS) and harvested by trypsinization using standard techniques. […] Cells were lysed in 50 PL 0.01 M NaOH before reading fluorescence at 460/530 nm in a RC4 microfluorimeter (BIOTEK).

Herceptin: recombinant, humanized anti-HER2 monoclonal IgG (Genentech)
internalization of NTA-liposomes (CLIA): did not increase the uptake
